Test results published in PubChem BioAssay AID651702 (NMMLSC, 2012).
The entries are a selection whose mix differs from that of the whole data set. Activity calls are given as the source filed them.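 The calls were made as follows: active = inhibition above about 55% (limit read from the data); inconclusive = no clear call, values can overlap the other calls; inactive = the rest.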

Test: LAMP-1 surface exposure blockers, TALL-104 cells – cell-based, flow cytometry, MLPCN library, primary screen (AID 651702)
Settings: TALL-104 LAMP-1 surface exposure, at 10 µM, hits give high values, cells stimulated with thapsigargin and PMA

Compound	inhibition
O=[N+]([O-])c1cc([N+](=O)[O-])c(Nc2ccc(Cl)cc2)c([N+](=O)[O-])c1	inactive: 2.7%
CP(=O)(Nc1ccccc1F)Oc1ccccc1 (stereo not given)	inactive: -1.4%
CC(C)c1ccc(OP(C)(=O)Nc2ccc(SC(F)(F)F)cc2)cc1 (stereo not given)	inactive: 0.5%
Cc1c([N+](=O)[O-])cc([N+](=O)[O-])c(Br)c1[N+](=O)[O-]	inactive: 0.1%
CCN(CC)CCCOC(=O)C(O)(c1ccccc1)C1CCCCC1 (stereo not given)	inactive: 1.2%
CP(=O)(Nc1ccccc1)Oc1ccc(F)cc1 (stereo not given)	inactive: -10.2%
CCCCCOc1ccc(NP(C)(=O)Oc2ccc(Cl)cc2Cl)cc1 (stereo not given)	inactive: 2.8%
O=[N+]([O-])c1cc([N+](=O)[O-])c(OC2CCCCC2O)c([N+](=O)[O-])c1 (stereo not given)	inactive: -1%
CCN(CC)CCCNc1ccccc1[N+](=O)[O-].O=[N+]([O-])c1cc([N+](=O)[O-])c(O)c([N+](=O)[O-])c1	inactive: -11.1%
CCOC(=O)c1ccc(NP(C)(=O)Oc2ccc(F)cc2)cc1 (stereo not given)	inactive: 0.5%
COc1ccc(OP(C)(=O)Nc2ccc(SC(F)(F)F)cc2)cc1 (stereo not given)	inactive: -2.9%
O=[N+]([O-])c1ccc(OP2(=O)COCCO2)cc1 (stereo not given)	inactive: -1.1%
O=[N+]([O-])c1cc([N+](=O)[O-])c(NCC2CCS(=O)(=O)C2)c([N+](=O)[O-])c1 (stereo not given)	inactive: -0.5%
Cc1cc(-c2cccc3ccccc23)c(C)cn1.O=[N+]([O-])c1cc([N+](=O)[O-])c(O)c([N+](=O)[O-])c1	inactive: 4.8%
Cc1c(C(c2ccc3c(c2)OCO3)c2c(C)n(C)n(-c3ccccc3)c2=O)c(=O)n(-c2ccccc2)n1C.O=[N+]([O-])c1cc([N+](=O)[O-])c(O)c([N+](=O)[O-])c1	inactive: 0.3%
COc1ccc(OP(C)(=O)Nc2cccc(Br)c2)cc1 (stereo not given)	inactive: -0.5%
CN(C)CCOC(=O)C(O)(c1ccccc1)C1CCCCC1 (stereo not given)	inactive: -3.1%
COc1ccc(NP(C)(=O)Oc2ccccc2OC)cc1 (stereo not given)	inactive: 0.8%
CP(=O)(Nc1ccc2c(c1)OCCO2)Oc1ccccc1 (stereo not given)	inactive: 0.4%
Cc1ccccc1NP(C)(=O)Nc1ccccc1C	inactive: -2.3%
O=[N+]([O-])c1cc([N+](=O)[O-])c(C(F)(F)F)c([N+](=O)[O-])c1O	inactive: -7.6%
CP(=O)(Nc1ccc(SC(F)(F)F)cc1)Oc1ccc(F)cc1 (stereo not given)	inactive: -16.6%
CCOP(C)(=S)SCC(=O)NC(C)(CC)C(=O)O (stereo not given)	inactive: 3.3%
CC(C)(C)c1ccc(OP(C)(=O)O)cc1	inactive: -0.6%
COc1ccccc1OP(C)(=O)Nc1ccccc1Br (stereo not given)	inactive: -2.5%

Compound	inhibition
CP(=O)(Nc1ccc(Cl)cc1)Oc1ccc(F)cc1 (stereo not given)	inactive: 6.2%
CN(C)C(=O)c1c([N+](=O)[O-])cc([N+](=O)[O-])cc1[N+](=O)[O-]	inactive: 11.7%
COc1ccc(OP(C)(=O)Nc2ccc(Br)cc2)cc1 (stereo not given)	inactive: -4.4%
CCN(CC)CC(O)COC(=O)C(O)(c1ccccc1)C1CCCCC1 (stereo not given)	inactive: 1.2%
O=C(OCCCN1CCCC1)C(O)(c1ccccc1)C1CCCCC1 (stereo not given)	inactive: 5.8%
COc1ccccc1OP(C)(=O)Nc1c(C)n(C)n(-c2ccccc2)c1=O (stereo not given)	inactive: -0.8%
CCc1ccc(OP(C)(=O)Nc2cccnc2)cc1 (stereo not given)	inactive: -0.2%
CP(=O)(Oc1ccccc1)N1CCOC1=O (stereo not given)	inactive: -1.4%
CCOC(=O)c1ccc(NP(C)(=O)Oc2ccc(Cl)cc2)cc1 (stereo not given)	inactive: -1.6%
CP(=O)(OC12CC3CC(CC(C3)C1)C2)OC12CC3CC(CC(C3)C1)C2	inactive: 0.5%
CP(=O)(OCCOc1ccccc1)OCCOc1ccccc1	inactive: -3.1%
CCCCCCCCCCCCCCCC1C[N+](C)(C)CCOP(C)(=O)O1 (stereo not given)	inactive: -12.7%
CP(=O)(Nc1ccc(Cl)cc1Cl)Oc1ccccc1 (stereo not given)	inactive: -0.7%
Cc1cc(C)cc(OP(C)(=O)Nc2cccc(C(F)(F)F)c2)c1 (stereo not given)	inactive: -3.5%
O=C1C(O)=C([N+](=O)[O-])C(=O)C(O)=C1[N+](=O)[O-]	inactive: -0.4%
COc1ccccc1OP(C)(=O)Nc1ccc(C)c(C)c1 (stereo not given)	inactive: -3.8%
COc1ccc(OP(C)(=O)Nc2ccccc2Br)cc1 (stereo not given)	inactive: -2.3%
O=[N+]([O-])c1cc([N+](=O)[O-])c(Nc2ccccn2)c([N+](=O)[O-])c1	inactive: -0.2%
Cc1c(NP(C)(=O)Oc2ccc(C(C)C)cc2)c(=O)n(-c2ccccc2)n1C (stereo not given)	inactive: 1.6%
COc1ccccc1OP(C)(=O)Nc1ccc(C)cc1C (stereo not given)	inactive: 0.3%
CP(=O)(Nc1ccccn1)Oc1ccccc1 (stereo not given)	inactive: -3.1%
CCc1ccc(OP(C)(=O)O)cc1	inactive: -2%
COc1ccccc1OP(C)(=O)Nc1ccc(Br)cc1 (stereo not given)	inactive: -2.8%
COc1ccc(OP(C)(=O)Nc2ccccn2)cc1 (stereo not given)	inactive: -1%
CN(C)CCOC(=O)C(O)(c1ccccc1)C1CCCC1 (stereo not given)	inactive: -1.5%
